Biological target: T1, vWF-degrading protease (Homo sapiens, UniProt Q76LX8)
T1 sequence (Q76LX8 75-1427): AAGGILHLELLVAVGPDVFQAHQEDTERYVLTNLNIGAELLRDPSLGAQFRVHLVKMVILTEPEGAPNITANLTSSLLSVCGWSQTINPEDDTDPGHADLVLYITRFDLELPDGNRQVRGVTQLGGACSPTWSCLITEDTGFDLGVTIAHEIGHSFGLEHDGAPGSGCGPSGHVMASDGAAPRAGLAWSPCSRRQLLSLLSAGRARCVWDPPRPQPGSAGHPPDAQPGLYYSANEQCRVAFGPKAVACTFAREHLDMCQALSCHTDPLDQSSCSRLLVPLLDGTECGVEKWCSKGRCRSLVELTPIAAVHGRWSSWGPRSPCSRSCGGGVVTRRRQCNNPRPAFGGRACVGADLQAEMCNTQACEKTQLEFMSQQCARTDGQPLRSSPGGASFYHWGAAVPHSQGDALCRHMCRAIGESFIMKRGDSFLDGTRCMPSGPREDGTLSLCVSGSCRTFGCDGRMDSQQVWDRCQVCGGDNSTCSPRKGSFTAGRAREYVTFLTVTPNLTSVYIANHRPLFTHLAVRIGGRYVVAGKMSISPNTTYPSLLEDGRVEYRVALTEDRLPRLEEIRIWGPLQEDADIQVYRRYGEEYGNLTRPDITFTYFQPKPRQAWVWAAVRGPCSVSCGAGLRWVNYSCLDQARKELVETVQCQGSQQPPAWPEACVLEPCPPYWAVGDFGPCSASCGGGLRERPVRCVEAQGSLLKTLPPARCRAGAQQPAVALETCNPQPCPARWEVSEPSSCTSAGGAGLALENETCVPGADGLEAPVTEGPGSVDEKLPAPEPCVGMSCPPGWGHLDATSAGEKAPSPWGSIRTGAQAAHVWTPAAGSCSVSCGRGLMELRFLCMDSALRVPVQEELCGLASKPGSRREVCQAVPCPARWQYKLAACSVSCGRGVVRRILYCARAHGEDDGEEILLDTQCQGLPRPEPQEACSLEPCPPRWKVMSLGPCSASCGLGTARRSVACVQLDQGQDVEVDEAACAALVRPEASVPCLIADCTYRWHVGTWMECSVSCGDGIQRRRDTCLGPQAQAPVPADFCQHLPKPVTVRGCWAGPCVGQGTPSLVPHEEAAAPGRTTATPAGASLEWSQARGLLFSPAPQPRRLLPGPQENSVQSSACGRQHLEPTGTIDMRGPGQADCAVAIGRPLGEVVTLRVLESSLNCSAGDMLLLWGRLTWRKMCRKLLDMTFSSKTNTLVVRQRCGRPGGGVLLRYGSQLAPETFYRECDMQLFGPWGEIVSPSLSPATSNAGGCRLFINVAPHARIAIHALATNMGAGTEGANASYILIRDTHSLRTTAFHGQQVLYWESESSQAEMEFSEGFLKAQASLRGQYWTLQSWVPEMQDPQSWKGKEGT
Details: 1 M urea, even at physiological salt concentrations, dialysis at 37° C.

effect on vWF degradation: increased markedly
Compound: NC(N)=O [urea]
